Amino acid sequences for entries named in this document (tags omitted).
UniProt P35372, whole entry: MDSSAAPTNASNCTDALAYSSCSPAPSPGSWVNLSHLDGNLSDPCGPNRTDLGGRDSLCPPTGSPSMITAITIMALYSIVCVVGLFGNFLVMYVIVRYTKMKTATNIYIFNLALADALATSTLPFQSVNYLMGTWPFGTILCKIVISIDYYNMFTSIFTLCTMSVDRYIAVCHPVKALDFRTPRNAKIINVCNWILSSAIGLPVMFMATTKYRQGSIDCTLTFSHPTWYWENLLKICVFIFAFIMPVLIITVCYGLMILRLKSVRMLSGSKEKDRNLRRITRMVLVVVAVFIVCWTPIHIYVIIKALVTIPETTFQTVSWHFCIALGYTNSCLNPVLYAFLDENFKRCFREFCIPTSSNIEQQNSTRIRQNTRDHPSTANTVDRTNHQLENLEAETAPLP
UniProt P41146, whole entry: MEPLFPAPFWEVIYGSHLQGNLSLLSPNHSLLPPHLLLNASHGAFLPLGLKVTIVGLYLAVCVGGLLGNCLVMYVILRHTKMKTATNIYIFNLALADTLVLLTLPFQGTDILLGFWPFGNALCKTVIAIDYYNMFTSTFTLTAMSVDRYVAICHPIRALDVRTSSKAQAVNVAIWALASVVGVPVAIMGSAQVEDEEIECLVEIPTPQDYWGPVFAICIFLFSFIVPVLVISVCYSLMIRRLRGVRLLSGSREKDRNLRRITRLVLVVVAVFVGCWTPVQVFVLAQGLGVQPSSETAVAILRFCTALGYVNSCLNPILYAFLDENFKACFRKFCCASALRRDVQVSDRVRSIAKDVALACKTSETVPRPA

According to ChEMBL document CHEMBL3352090, “Discovery of a Potent Analgesic NOP and Opioid Receptor Agonist: Cebranopadol” (2014):

Key:
[1] = biological target: T1, Mu-type opioid receptor (Homo sapiens, UniProt P35372); assay: Agonist activity at human recombinant MOP receptor expressed in CHO-K1 cells assessed as stimulation of [35S]GTPgammaS binding by scintillation proximity assay
[2] = biological target: T1, Mu-type opioid receptor; assay: Displacement of [3H]naloxone from human MOP receptor expressed in CHO-K1 cells by scintillation proximity assay
[3] = biological target: T2, Nociceptin receptor (Homo sapiens, UniProt P41146); assay: Agonist activity at human recombinant NOP receptor expressed in CHO-K1 cells assessed as stimulation of [35S]GTPgammaS binding by scintillation proximity assay
[4] = biological target: T2, Nociceptin receptor; assay: Displacement of [3H]nociceptin from human NOP receptor expressed in CHO-K1 cells by scintillation proximity assay
[5] = tested on: Mus musculus; assay: Antinociceptive activity in iv dosed NMRI mouse assessed as increase in latency for tail withdrawal from radiant heat source by tail flick test; details: strain NMRI
[6] = tested on: Mus musculus; assay: Antinociceptive activity in orally dosed NMRI mouse assessed as time duration showing >20% maximum possible antinociceptive efficacy by tail flick test; details: strain NMRI
[7] = tested on: Mus musculus; assay: Antinociceptive activity in iv dosed NMRI mouse assessed as time duration showing >20% maximum possible antinociceptive efficacy by tail flick test; details: strain NMRI
[8] = tested on: Mus musculus; assay: Antinociceptive activity in orally dosed NMRI mouse assessed as increase in latency for tail withdrawal from radiant heat source by tail flick test; details: strain NMRI

SMILES	EC50 [1] [nM]	Ki [2] [nM]	EC50 [3] [nM]	Ki [4] [nM]	ED50 [5] [µmol/kg]	MPE [5] [%]	Time [6] [min]	Time [7] [min]	ED50 [8] [µmol/kg]	MPE [8] [%]
CN(C)[C@]1(c2ccccc2)CC[C@]2(CC1)OCCc1c3cc(O)ccc3[nH]c12	1.2	0.4	120	1	–	–	–	–	–	–
CN(C)[C@]1(c2ccccc2)CC[C@]2(CC1)NCCc1c3ccccc3[nH]c12	0.2	0.39	1.3	0.19	–	–	–	–	–	–
CN(C)[C@]1(c2ccccc2)CC[C@@]2(CC1)c1[nH]c3ccccc3c1CCN2C	–	0.24	–	0.55	–	–	–	–	–	–
CN[C@]1(c2ccccc2)CC[C@]2(CC1)OCCc1c3cc(F)ccc3[nH]c12	2.6	2	60	11	–	–	–	–	–	–
CN[C@]1(c2ccccc2)CC[C@]2(CC1)OCCc1c3cc(F)ccc3[nH]c12.O=C(O)CC(O)(CC(=O)O)C(=O)O	–	–	–	–	0.434	100	> 600	300	1.43	> 95
CN[C@]1(c2ccccc2)CC[C@]2(CC1)OCCc1c3ccccc3[nH]c12	–	0.36	–	1.1	–	–	–	–	–	–
CN(C)[C@]1(c2ccccc2)CC[C@]2(CC1)OCCc1c3cc(O)ccc3[nH]c12.O=C(O)CC(O)(CC(=O)O)C(=O)O	–	–	–	–	0.0222	> 95	–	–	3.06	100
